{"source": "patent US9961896B2", "about": "“Cleaning liquid” (priority 2013, dated 2018)", "origin": "cited, not measured here", "conditions": "Table 5, comparison water treatments; cited from earlier work", "data": [{"substance": "chlorine", "values": [{"measurement": "Does not degrade into or react with other pool or spa chemicals to form harmful disinfection by roducts", "result": "No"}, {"measurement": "Low order of toxicity or preferably non toxic to humans, animals and plant life", "result": "Yes"}, {"measurement": "Safe to handle", "result": "No"}, {"measurement": "Suitable shelf life at storage temperatures for a minimum of 1 year", "result": "No"}]}]}
